How the values were obtained:
Test in all cases: Histone peptide microarray
Format in all cases: binding, human
KDM5A (3) = conditions: sheet "Array Heatmap"; GST-tagged KDM5A (3); arrays performed twice, total replicate number n = 4
Source text: (§1) To more comprehensively define the histone interactions of the 31 PHD readers identified from the domain microarray analyses, we probed each on an alternate microarray platform containing a library of 293 synthetic histone peptides with single or combinatorial PTMs (Additional file 2: Figure S4 and Additional file 3: Table S2). […] In general, the 31 PHD fingers were confirmed to associate with the H3 tail with the same H3K4 methyl preferences as in the domain microarrays (Fig. 2; Additional file 3: Table S2). […] In addition, we confirmed the newly identified interactions observed with the domain microarrays for PHRF1 and TRIM66 (Fig. 2).
(§2) The 31 GST-tagged PHD readers identified in the PHD finger domain array were expressed and purified as previously. Histone peptide arrays and peptide pulldown assays were conducted as recently described (specifically, the optimized protocol from Petell et al. for the former).
(§3) Supplementary file 13072_2020_328_MOESM3_ESM.xlsx: Additional file 3: Table S2. Histone Peptide Microarray Results. Excel Tab Peptide List is a compiled list of the entire 293 histone peptide library with amino acid sequence ranges. Excel Tab Peptide Array Grid Map is a table representing the pattern in which peptides have been printed for the peptide microarray. Each number corresponds to the peptide number designated in Peptide List. Excel Tab Average Signals is a compiled set of binding data: chromatin reader at 0.5 μM vs. entire 293 peptide library. Data is presented as the average and standard deviation of 4 replicates. The average signals are colored to indicate signal intensity with green being strong and white being weak/low. […] Key: red= stronger relative binding; blue = weaker relative binding. Excel Tab Array info summary is a table summarizing the domains, sequence coverage, array signal range, and noise for each of the GST-tagged readers assayed on the peptide microarrays.

KDM5B (3) = conditions: sheet "Array Heatmap"; GST-tagged KDM5B (3); arrays performed twice, total replicate number n = 4
Source text: as §1, §2, §3

KDM7A = conditions: sheet "Array Heatmap"; GST-tagged KDM7A; arrays performed twice, total replicate number n = 4
Source text: as §1, §2, §3

MLL5 = conditions: sheet "Array Heatmap"; GST-tagged MLL5; arrays performed twice, total replicate number n = 4
Source text: as §1, §2, §3

MORC3 (CW) = conditions: sheet "Array Heatmap"; GST-tagged MORC3 (CW); arrays performed twice, total replicate number n = 4
Source text: as §1, §2, §3

PHF13 = conditions: sheet "Array Heatmap"; GST-tagged PHF13; arrays performed twice, total replicate number n = 4
Source text: as §1, §2, §3

PHF21A = conditions: sheet "Array Heatmap"; GST-tagged PHF21A; arrays performed twice, total replicate number n = 4
Source text: as §1, §2, §3

PHF23 = conditions: sheet "Array Heatmap"; GST-tagged PHF23; arrays performed twice, total replicate number n = 4
Source text: as §1, §2, §3

PHF2 = conditions: sheet "Array Heatmap"; GST-tagged PHF2; arrays performed twice, total replicate number n = 4
Source text: as §1, §2, §3

PHF8 = conditions: sheet "Array Heatmap"; GST-tagged PHF8; arrays performed twice, total replicate number n = 4
Source text: as §1, §2, §3

PHRF1 (RP) = conditions: sheet "Array Heatmap"; GST-tagged PHRF1 (RP); arrays performed twice, total replicate number n = 4
Source text: as §1, §2, §3

RAG2 = conditions: sheet "Array Heatmap"; GST-tagged RAG2; arrays performed twice, total replicate number n = 4
Source text: as §1, §2, §3

SP140L = conditions: sheet "Array Heatmap"; GST-tagged SP140L; arrays performed twice, total replicate number n = 4
Source text: as §1, §2, §3

TAF3 = conditions: sheet "Array Heatmap"; GST-tagged TAF3; arrays performed twice, total replicate number n = 4
Source text: as §1, §2, §3

TRIM66 (PB) = conditions: sheet "Array Heatmap"; GST-tagged TRIM66 (PB); arrays performed twice, total replicate number n = 4
Source text: as §1, §2, §3

## H3K9me2 (1-15): H3 1-15
KDM5A (3)
  Array Heatmap signal, KDM5A (3): 0.4311
KDM5B (3)
  Array Heatmap signal, KDM5B (3): 0.4439
KDM7A
  Array Heatmap signal, KDM7A: 0.3229
MLL5
  Array Heatmap signal, MLL5: 0.5365
MORC3 (CW)
  Array Heatmap signal, MORC3 (CW): 0.4062
PHF13
  Array Heatmap signal, PHF13: 0.6111
PHF21A
  Array Heatmap signal, PHF21A: 0.4644
PHF23
  Array Heatmap signal, PHF23: 0.5145
PHF2
  Array Heatmap signal, PHF2: 0.4798
PHF8
  Array Heatmap signal, PHF8: 0.3238
PHRF1 (RP)
  Array Heatmap signal, PHRF1 (RP): 0.5113
RAG2
  Array Heatmap signal, RAG2: 0.2519
SP140L
  Array Heatmap signal, SP140L: 0.3335
TAF3
  Array Heatmap signal, TAF3: 0.2478
TRIM66 (PB)
  Array Heatmap signal, TRIM66 (PB): 0.7556

— paper PMC6979384, “Characterization of the plant homeodomain (PHD) reader family for their histone tail interactions” (Epigenetics & Chromatin, 2020)
